In paper PMC3508077 (Bioorganic & medicinal chemistry, 2012):

Assays:
[1] = test system: NAD(P)H:quinone reductase 1 (QR1); assay: QR1 induction assay in Hepa 1c1c7 murine hepatoma cells; type: cell-based; conditions: Hepa 1c1c7 cells; given in nM in the text
[2] = test system: NAD(P)H:quinone reductase 1 (QR1); assay: cells; conditions: Mus musculus, 48 h, read-out: CD (concentration that doubles the activity)

Row | SMILES | CD (concentration that doubles QR1 activity) [1] | EC (2-fold QR1 activity) [2]
1 | Fc1cccc(-c2nc(-c3ccccc3)cs2)c1F [Compound 9b, 2-(2,3-Difluorophenyl)-4-phenylthiazole] | 192 nM | > 50 µM
2 | Clc1cccc(-c2nc(-c3ccccc3)cs2)c1Cl [Compound 9c, 2-(2,3-Dichlorophenyl)-4-phenylthiazole] | 360 nM | –
3 | COc1cccc(-c2csc(-c3ccccc3)n2)c1 [Compound 9n, 4-(3-Methoxyphenyl)-2-phenylthiazole] | 117 nM | > 50 µM
4 | COc1cccc(-c2csc(-c3cccc(OC)c3)n2)c1 [Compound 9o] | 87 nM | > 50 µM
